Results: patent publication US12478616B2, “PI3K inhibitors and uses thereof” (Sloan-Kettering Institute for Cancer Research, priority 2018, dated 2025)

Sequences of proteins named here, by UniProt entry; tags and fusion partners are left off.
UniProt P42336, whole entry: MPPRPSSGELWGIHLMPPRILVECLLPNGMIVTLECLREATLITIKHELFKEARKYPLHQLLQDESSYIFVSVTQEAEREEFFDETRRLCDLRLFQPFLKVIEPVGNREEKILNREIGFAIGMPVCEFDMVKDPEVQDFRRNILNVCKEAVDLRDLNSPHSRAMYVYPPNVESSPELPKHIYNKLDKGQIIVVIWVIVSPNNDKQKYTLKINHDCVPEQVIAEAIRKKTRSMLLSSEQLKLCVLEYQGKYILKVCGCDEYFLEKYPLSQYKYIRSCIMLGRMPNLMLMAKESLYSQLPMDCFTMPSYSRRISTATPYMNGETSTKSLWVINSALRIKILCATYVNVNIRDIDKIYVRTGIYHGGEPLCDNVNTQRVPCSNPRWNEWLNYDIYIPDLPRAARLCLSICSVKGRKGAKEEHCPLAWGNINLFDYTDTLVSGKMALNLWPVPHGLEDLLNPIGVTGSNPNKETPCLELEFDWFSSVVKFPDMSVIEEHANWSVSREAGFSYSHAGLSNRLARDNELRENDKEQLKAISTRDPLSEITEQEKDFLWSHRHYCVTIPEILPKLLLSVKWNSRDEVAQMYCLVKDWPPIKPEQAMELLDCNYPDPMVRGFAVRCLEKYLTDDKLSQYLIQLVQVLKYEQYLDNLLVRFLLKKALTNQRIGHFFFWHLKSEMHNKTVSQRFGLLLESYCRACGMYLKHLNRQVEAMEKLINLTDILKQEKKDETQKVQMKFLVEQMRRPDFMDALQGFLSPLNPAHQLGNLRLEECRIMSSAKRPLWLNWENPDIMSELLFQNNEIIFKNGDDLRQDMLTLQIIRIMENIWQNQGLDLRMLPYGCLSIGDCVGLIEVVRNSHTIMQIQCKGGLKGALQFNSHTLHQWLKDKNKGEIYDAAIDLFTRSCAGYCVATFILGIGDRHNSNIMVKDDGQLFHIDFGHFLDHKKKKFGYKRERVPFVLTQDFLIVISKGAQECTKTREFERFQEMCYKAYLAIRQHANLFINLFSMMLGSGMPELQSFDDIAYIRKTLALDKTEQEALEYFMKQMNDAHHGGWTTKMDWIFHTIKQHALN
UniProt P27986, whole entry partner: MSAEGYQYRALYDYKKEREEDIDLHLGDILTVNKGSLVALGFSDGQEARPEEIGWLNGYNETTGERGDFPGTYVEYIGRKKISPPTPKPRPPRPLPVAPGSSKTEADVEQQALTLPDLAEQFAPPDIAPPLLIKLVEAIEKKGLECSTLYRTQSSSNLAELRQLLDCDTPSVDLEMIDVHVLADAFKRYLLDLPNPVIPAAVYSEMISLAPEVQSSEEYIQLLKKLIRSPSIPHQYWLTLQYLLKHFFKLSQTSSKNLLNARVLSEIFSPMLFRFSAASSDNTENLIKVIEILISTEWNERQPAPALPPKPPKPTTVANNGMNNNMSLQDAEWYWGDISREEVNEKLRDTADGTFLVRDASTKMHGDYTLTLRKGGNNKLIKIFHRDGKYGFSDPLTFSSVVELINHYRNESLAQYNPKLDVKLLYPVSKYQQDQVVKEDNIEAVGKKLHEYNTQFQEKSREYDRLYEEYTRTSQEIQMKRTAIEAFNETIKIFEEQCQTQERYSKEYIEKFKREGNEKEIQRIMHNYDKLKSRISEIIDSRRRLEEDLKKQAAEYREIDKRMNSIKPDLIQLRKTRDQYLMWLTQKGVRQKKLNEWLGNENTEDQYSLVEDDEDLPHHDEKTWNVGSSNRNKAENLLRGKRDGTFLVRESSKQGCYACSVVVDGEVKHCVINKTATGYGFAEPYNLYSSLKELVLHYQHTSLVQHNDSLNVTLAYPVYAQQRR

Legend:
[1] = Metabolic rate in microsome (mouse); type: in vitro ADME; settings: for lability / metabolic rate in microsomes (in words): mouse and human microsomes
[2] = PAMPA pH 7.4; type: in vitro ADME; settings: for permeability (in words): text on Table 8
[3] = Stability in blood (human); type: in vitro ADME
[4] = Stability in blood (mouse); type: in vitro ADME
[5] = biological target: PI3Kα (Homo sapiens (Human), UniProt P42336); experiment: PI3Kα kinase (biochemical) assay; settings: for IC50: read-out: PI3Kα (IC50), Table 6, proline-modified inhibitors
[6] = Fucoidan nanoparticle formulation, drug load and particle size; settings: Table 8
[7] = Mouse pharmacokinetics, cassette dosed free drug
[8] = Metabolic rate in microsome (human); type: in vitro ADME
[9] = Table 7, mouse, cassette, 0.1 mg/kg IV, 1 mL/kg (10-in-One)

SMILES | lability / metabolic rate in microsomes (in words) [1] | Metabolic rate in microsome (mouse) [1] [µL/min/mg] | PAMPA pH 7.4 [2] [nm/sec] | permeability (in words) [2] | Stability in blood (human) [% remaining @ 2 h] [3] [%] | Stability in blood (mouse) [% remaining @ 2 h] [4] [%] | IC50 [5] [nM] | Nanoparticle drug load, % [6] [%] | compound detected at Cmax (t=5 min), IV dosing arm ([7]; mouse cassette PK, IV) | compound detected following oral administration ([7]; mouse cassette PK, oral) | Metabolic rate in microsome (human) [8] [µL/min/mg] | PI3Kα inhibition in biochemical assay (in words) [5] | AUCiv [7, 9] [ng·h/mL] | C5min [7, 9] [ng/mL] | Cltotal [7, 9] [mL/min/kg] | MRTiv [7, 9] [min] | VDss [7, 9] [L/kg] | half-life relative to BYL719 and Compound (14) (in words) ([7]; mice, IV-dosed) | total clearance (in words) ([7]; mouse, cassette dosing, free drug)
Cc1nc(NC(=O)N2C[C@H](C(=O)OCc3oc(=O)oc3C)C[C@H]2C(N)=O)sc1-c1ccnc(C(C)(C)C(F)(F)F)c1 | high metabolic rate | 577 | 172 | display permeability characteristics | 0.4 | 1.0 | < 100 | 34 | no Compound (18) was detected | no Compound (18) was detected | 245 | – | – | – | – | – | – | – | –
Cc1nc(NC(=O)N2C[C@H](C(=O)O)C[C@H]2C(N)=O)sc1-c1ccnc(C(C)(C)C(F)(F)F)c1 | very stable | -8 | <6 | – | 103 | 104 | < 100 | 41 | – | – | 7 | potent | 9.6 | 55.7 | 177.7 | 11.4 | 2.057 | shorter half-life | much higher clearance
CCOC(=O)[C@@H]1C[C@@H](C(N)=O)N(C(=O)Nc2nc(C)c(-c3ccnc(C(C)(C)C(F)(F)F)c3)s2)C1 | more labile in mouse microsomes than in human | 104 | 155 | display permeability characteristics | 60 | 0.076 | < 100 | 39 | – | – | 18 | – | – | – | – | – | – | – | –
